Results reported in patent US20210253716A1 (Regeneron, published 2021).

How the values were obtained:
[1] = target: T1, full length human ACVR1 (R206H) on HEK293/BRE-luc/hACVR1-R206H-clone H2 cells (human, UniProt Q04771 21-509); experiment: cell-based or functional assay
T1 sequence: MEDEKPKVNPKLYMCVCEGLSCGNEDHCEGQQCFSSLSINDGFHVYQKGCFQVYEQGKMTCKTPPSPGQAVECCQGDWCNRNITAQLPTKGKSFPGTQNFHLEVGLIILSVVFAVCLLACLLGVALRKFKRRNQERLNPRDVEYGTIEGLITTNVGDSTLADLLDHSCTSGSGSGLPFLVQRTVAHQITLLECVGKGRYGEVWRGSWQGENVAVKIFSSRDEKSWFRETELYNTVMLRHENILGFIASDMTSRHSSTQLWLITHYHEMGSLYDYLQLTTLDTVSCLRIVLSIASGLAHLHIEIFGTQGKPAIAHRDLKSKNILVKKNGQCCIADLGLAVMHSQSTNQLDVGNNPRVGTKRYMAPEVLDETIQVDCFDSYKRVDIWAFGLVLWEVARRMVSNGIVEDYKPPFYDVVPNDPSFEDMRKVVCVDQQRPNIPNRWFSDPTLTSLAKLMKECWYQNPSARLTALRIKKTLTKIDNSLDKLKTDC

[2] = target: T2, human ACVR1 extracellular domain expressed with a C-terminal myc-myc-hexahistidine tag (human); experiment: SPR (Biacore), mAb captured, 25 C
T2 construct: also called hACVR1-MMH
T2 chain: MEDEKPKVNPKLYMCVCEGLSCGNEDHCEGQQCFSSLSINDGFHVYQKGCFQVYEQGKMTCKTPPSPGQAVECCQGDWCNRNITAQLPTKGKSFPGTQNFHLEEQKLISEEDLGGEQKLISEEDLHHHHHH
Experimental: (§1) Equilibrium dissociation constants (KD) for ACVR1 binding to purified anti-ACVR1 monoclonal antibodies were determined using a real-time surface plasmon resonance biosensor (SPR-Biacore), Biacore 4000. All binding studies were performed in 10 mM HEPES, 150 mM NaCl, 3 mM EDTA, and 0.05% v/v surfactant Tween-20, pH 7.4 (HBS-ET) running buffer at 25° C. and 37° C. The Biacore CM5 sensor surface was first derivatized by amine coupling with a monoclonal mouse anti-human Fc antibody (GE, #BR-1008-39 or REGN2567) to capture anti-ACVR1 monoclonal antibodies. […] ACVR1 reagents were then injected over anti-human Fc captured anti-ACVR1 monoclonal antibody surface for 2.5-3 minutes at a flow rate of 30 μL/minute, while the dissociation of monoclonal antibody bound ACVR1 reagent was monitored for 10-15 minutes in HBS-ET running buffer. Kinetic association rate constant (kₐ) and dissociation rate constant (kd) were determined by fitting the real-time sensorgrams to a 1:1 binding model using Scrubber 2.0c curve-fitting software. Binding dissociation equilibrium constants (KD) and dissociative half-lives (t½) were calculated from the kinetic rate constants as: […]

[3] = target: T3, human ACVR1 extracellular domain expressed with a C-terminal mouse IgG2a Fc tag (human); experiment: SPR (Biacore), mAb captured, 25 C
T3 construct: also called hACVR1-mFc
T3 chain: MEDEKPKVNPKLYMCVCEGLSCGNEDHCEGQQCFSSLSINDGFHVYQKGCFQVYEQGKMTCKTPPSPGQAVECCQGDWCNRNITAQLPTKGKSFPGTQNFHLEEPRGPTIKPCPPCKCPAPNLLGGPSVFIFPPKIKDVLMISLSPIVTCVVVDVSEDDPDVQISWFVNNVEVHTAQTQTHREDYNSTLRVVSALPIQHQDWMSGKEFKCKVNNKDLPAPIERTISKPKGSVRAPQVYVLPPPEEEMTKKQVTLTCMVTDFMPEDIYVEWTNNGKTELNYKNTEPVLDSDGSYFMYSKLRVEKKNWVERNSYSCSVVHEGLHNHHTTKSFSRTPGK
Experimental: as §1

[4] = target: T4, mouse ACVR1 extracellular domain expressed with a C-terminal myc-myc-hexahistidine tag (mouse); experiment: SPR (Biacore), mAb captured, 25 C
T4 construct: also called mACVR1-MMH; mACVR1-mmh
T4 chain: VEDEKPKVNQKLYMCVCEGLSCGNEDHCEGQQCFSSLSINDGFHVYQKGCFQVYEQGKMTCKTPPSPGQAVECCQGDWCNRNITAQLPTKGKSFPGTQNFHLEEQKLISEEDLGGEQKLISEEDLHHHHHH
Experimental: as §1

[5] = target: T2, human ACVR1 extracellular domain …; experiment: SPR (Biacore), mAb captured, 37 C
Experimental: as §1

[6] = target: T3, human ACVR1 extracellular domain …; experiment: SPR (Biacore), mAb captured, 37 C
Experimental: as §1

[7] = target: T4, mouse ACVR1 extracellular domain …; experiment: SPR (Biacore), mAb captured, 37 C
Experimental: as §1

[8] = target: T1, full length human ACVR1 (R206H) on …; experiment: flow cytometry, 70 nM antibody, HEK293/hACVR1-R206H cells
Experimental: To assess binding of the anti-ACVR1 antibodies of the invention to the receptor expressed on the cell surface, either 66.6 nM or 70 nM of the antibodies were incubated with 0.5×10⁶ cells/well at 4° C. for 30 minutes in PBS (without calcium and magnesium) containing 2% FBS. […] Cells were fixed using BD CytoFix™ (Becton Dickinson, #554655) and analyzed on either Hypercyt® or IQue® Flow Cytometers (Intellicyt®). Unstained and secondary antibody alone controls were also tested for all cell lines. The results were analyzed using ForeCyt® (IntelliCyt®) software to determine the geometric means of fluorescence for viable cells and binding ratios were calculated by normalizing the geometric mean value of the test condition by the geometric mean value of the corresponding unstained cells.

B1: mAb27396 (antibody, human IgG4 S228P, kappa, V domains shown)
VH: QVHLVESGGGVVQPGRSLRLSCAASGFTFSNYGIHWVRQVPGKGLEWVAVISYDGNNKYYGDSVKGRFTISRDNSKNTLYLQMNSLRPEDTAIYYCAKDRGLDTAGDYFDYWGQGTLVTVSS
VL: EIVMTQSPATLSVSTGERATLSCRASQNISSKLAWYQQKPGQAPRLLIYGASTRASGIPARFWGSGSGTEFTLTISSLQSEDFAVFYCLQYNNWWTFGQGTKVEIKR
Question: For B1, which “% Inhibition, BRE-luc reporter, 2 nM hBMP7” value [1] is on record?
Answer: 90%

Question: And the “IC50 [M], BRE-luc reporter, 2 nM hBMP7” value [1]?
Answer: 5.8e-10 M

Question: What about the “900 nM or 100 nM Ag Bound (RU)” value [2] of the same binder?
Answer: 23 RU

Question: What about the Kd [2] of the same binder?
Answer: 291 nM

Question: What about the koff [2] of the same binder?
Answer: 0.0745 s⁻¹

Question: And the kon [2]?
Answer: 256000 M⁻¹ s⁻¹

Question: What about the t½ [2] of the same binder?
Answer: 0.16 min

Question: And the “100 nM Ag Bound (RU)” value [3]?
Answer: 170 RU

Question: And the Kd [3]?
Answer: 1.52 nM

Question: And the koff [3]?
Answer: 0.000493 s⁻¹

Question: And the kon [3]?
Answer: 324000 M⁻¹ s⁻¹

Question: What about the t½ [3] of the same binder?
Answer: 23 min

Question: What about the “900 nM or 100 nM Ag Bound (RU)” value [4] of the same binder?
Answer: 1 RU

Question: Does B1 bind [4]?
Answer: no binding (tested: 900 nM or 100 nM)

Question: What about the “900 nM or 100 nM Ag Bound (RU)” value [5] of the same binder?
Answer: 22 RU

Question: And the Kd [5]?
Answer: 362 nM

Question: What about the koff [5] of the same binder?
Answer: 0.18 s⁻¹

Question: What about the kon [5] of the same binder?
Answer: 496000 M⁻¹ s⁻¹

Question: What about the t½ [5] of the same binder?
Answer: 0.06 min

Question: And the “100 nM Ag Bound (RU)” value [6]?
Answer: 197 RU

Question: And the Kd [6]?
Answer: 4.31 nM

Question: What about the koff [6] of the same binder?
Answer: 0.00196 s⁻¹

Question: And the kon [6]?
Answer: 454000 M⁻¹ s⁻¹

Question: And the t½ [6]?
Answer: 6 min

Question: And the “900 nM or 100 nM Ag Bound (RU)” value [7]?
Answer: 4 RU

Question: What about the “MFI - Normalized to Unstained Control” value [8] of the same binder?
Answer: 954 fold
